# Data published in patent publication US20240189287A1, “PERIPHERALLY RESTRICTED CB1 RECEPTOR BLOCKERS AND USES THEREOF” (BIONANOSIM (BNS) LTD, priority 2021, published 2024).
# Amino acid sequences for entries named in this document (tags omitted).
# UniProt P33261, whole entry: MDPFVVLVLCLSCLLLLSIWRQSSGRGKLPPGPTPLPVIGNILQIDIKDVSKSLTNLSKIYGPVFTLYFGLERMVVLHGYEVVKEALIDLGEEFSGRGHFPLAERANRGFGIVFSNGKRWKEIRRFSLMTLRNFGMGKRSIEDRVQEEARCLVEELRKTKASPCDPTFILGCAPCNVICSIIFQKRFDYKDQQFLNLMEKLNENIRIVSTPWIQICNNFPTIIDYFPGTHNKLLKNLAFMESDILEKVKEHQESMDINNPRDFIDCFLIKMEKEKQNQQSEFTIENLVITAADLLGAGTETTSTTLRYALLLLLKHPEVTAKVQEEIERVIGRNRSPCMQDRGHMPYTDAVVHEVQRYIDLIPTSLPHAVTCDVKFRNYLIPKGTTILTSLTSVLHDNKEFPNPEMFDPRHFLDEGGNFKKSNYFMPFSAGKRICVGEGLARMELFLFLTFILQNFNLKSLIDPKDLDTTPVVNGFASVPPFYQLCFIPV
# UniProt P05177, whole entry: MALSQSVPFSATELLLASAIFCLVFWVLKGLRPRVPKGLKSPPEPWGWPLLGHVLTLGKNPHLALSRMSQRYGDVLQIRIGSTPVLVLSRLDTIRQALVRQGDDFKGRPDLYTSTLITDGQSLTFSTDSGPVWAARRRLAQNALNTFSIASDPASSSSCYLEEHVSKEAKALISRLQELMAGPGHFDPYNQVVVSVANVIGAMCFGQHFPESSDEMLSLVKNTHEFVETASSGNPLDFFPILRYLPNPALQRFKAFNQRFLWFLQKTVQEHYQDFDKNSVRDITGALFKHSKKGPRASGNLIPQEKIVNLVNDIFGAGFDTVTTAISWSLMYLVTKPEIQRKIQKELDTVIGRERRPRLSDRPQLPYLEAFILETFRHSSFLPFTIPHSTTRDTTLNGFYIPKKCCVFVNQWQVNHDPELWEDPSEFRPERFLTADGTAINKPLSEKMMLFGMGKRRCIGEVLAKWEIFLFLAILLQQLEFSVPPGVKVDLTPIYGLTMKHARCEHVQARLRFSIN
# Legend:
# CYP2C19 = CYP2C19 (Homo sapiens (Human), UniProt P33261); test: CYP inhibition in human liver microsomes; assay type: in vitro ADME; details: CYP isozyme 2C19, standard inhibitor
# Experimental: (§1) To evaluate the in vitro CYP inhibition of BNS808 and BNS822, the compounds were tested in human liver microsomes that are rich in drug metabolizing enzymes, including CYPs 1A2, 2C9, 2C19, 2D6, 3A4.
# CYP 1A2 = CYP 1A2 (Homo sapiens (Human), UniProt P05177); test: CYP inhibition in human liver microsomes; assay type: in vitro ADME
# Experimental: as §1
SMILES,% Inhibition (CYP2C19),% Inhibition (CYP 1A2)
"CCC1(c2ccccc2)NC(=O)N(Cc2ccccc2)C1=O (single isomer, unassigned; (+)) [(+)-N-3-benzyl-nirvanol, reference compound]",84.1%,
"O=c1cc(-c2ccccc2)oc2c1ccc1ccccc12 [a-Naphthoflavone, reference compound]",,90.0%
